IC50 data for four compounds are collected here from patent publication US8067424B2 (dated 2011).

Chains of the proteins cited; added tags and fusions are not shown.
UniProt P50750, whole entry: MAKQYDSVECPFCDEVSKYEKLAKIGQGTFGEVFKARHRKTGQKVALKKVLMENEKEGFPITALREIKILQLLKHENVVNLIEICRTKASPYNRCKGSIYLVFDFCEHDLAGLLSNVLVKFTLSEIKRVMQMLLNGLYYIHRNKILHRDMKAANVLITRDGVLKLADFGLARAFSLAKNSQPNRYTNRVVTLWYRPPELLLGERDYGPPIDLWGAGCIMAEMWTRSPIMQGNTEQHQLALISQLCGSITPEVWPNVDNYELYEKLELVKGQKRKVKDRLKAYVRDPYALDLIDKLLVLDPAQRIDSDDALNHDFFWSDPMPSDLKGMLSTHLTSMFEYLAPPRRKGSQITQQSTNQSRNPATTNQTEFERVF

The term IC50 denotes the point on the concentration scale where inhibition reaches its midpoint. The low end stands for greater potency in that assay, the high end for weaker potency in that assay.

The assay deals with CDK9/cyclin T complex (Homo sapiens, UniProt P50750). Description: CDK9/cyclin T kinase assay (as for CDK7). The assay is classed as biochemical.
[1] abbreviates: CDK9 kinase inhibition in vitro (IC50) in nM, Table 7, mean of three experiments.

Consider `CC(C)c1cnn2c(NCc3ccccc3)cc(N[C@@H](CO)[C@H](O)CO)nc12` [Example 8], for which, under “CDK9 IC50 (nM), Table 2”, the concentration for half-maximal inhibition (IC50) is 10 to 100 nM.

On to `CC(C)c1cnn2c(NCc3ccccc3)cc(N[C@@H](CO)[C@H](O)CO)nc12` [ICEC0318, (3S)-3-(7-(Benzylamino)-3-isopropylpyrazolo[1,5-a]pyrimidin-5-ylamino)butane-1,2,4-triol], for which the 50% inhibitory concentration (IC50) under setting [1] worked out at 50 nM. In other words, the double-digit nanomolar range.

Under setting [1], `CC(C)c1cnn2c(NCc3ccccc3)cc(N[C@@H](CO)[C@@H](O)CO)nc12` [ICEC0319, (3S)-3-(7-(Benzylamino)-3-isopropylpyrazolo[1,5-a]pyrimidin-5-ylamino)butane-1,2,4-triol] registered a 50% inhibitory concentration (IC50) of 75 nM.

For the setting “CDK9 IC50 (nM), Table 2”, `CC(C)c1cnn2c(NCc3ccccc3)cc(N[C@@H](CO)[C@@H](O)CO)nc12` [Example 9] came in with an IC50 of 10 to 100 nM.
